These compounds were tested against T1, mouse GLP-1 receptor endogenously expressed in βTC6 cells (Mus musculus, UniProt O35659) (assay: cAMP production functional assay (HTRF), agonist activity at GLP-1R). Conditions: Table 1.
T1 construct: host or cells: βTC6 cells
T1 sequence (O35659 22-463): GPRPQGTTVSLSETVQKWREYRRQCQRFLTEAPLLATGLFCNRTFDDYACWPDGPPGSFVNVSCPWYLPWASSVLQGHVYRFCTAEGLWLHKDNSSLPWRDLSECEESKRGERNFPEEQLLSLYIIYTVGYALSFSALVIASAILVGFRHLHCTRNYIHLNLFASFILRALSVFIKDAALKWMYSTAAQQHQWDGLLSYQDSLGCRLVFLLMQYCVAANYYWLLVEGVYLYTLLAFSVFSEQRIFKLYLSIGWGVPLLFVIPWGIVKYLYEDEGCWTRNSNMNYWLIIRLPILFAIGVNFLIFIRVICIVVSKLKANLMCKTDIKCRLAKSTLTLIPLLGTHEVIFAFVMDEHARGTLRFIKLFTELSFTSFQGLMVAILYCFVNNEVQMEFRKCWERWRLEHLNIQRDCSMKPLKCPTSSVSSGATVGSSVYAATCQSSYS
Format: cell-based
Procedure: The agonistic activity of these hybrids were obtained by functional assays using cells expressing the […] and by measuring the receptor-mediated cAMP produced (see supporting information).
In vitro pharmacology (EC50). […] Following incubation, the cells were lysed and the fluorescence acceptor (D2-labeled cAMP) and fluorescence donor (anti-cAMP antibody labeled with europium cryptate) were added.

Structure (SMILES)	Potency (%), percentage of potency compare to GLP-1-G^2 [%]
CC[C@H](C)[C@H](NC(=O)[C@H](Cc1ccccc1)NC(=O)[C@H](CCC(=O)O)NC(=O)[C@H](CCCCN)NC(=O)[C@H](C)NC(=O)[C@H](C)NC(=O)[C@H](CCC(N)=O)NC(=O)CNC(=O)[C@H](CCC(=O)O)NC(=O)[C@H](CC(C)C)NC(=O)[C@H](Cc1ccc(O)cc1)NC(=O)[C@H](CO)NC(=O)[C@H](CO)NC(=O)[C@@H](NC(=O)[C@H](CC(=O)O)NC(=O)[C@H](CO)NC(=O)[C@@H](NC(=O)[C@H](Cc1ccccc1)NC(=O)[C@@H](NC(=O)CNC(=O)[C@H](CCC(=O)O)NC(=O)CNC(=O)[C@@H](N)Cc1c[nH]cn1)[C@@H](C)O)[C@@H](C)O)C(C)C)C(=O)N[C@@H](C)C(=O)N[C@@H](C)CNC(=O)N[C@@H](C)CNC(=O)N[C@@H](C)CNC(=O)NCC(=O)N[C@@H](CCCNC(=N)N)C(=O)NCC(N)=O [Compound 19, GG2[A^UA^UA^U]^25-28]	0.07
CC[C@H](C)[C@H](NC(=O)[C@H](Cc1ccccc1)NC(=O)[C@H](CCC(=O)O)NC(=O)[C@H](CCCCN)NC(=O)[C@H](C)NC(=O)[C@H](C)NC(=O)[C@H](CCC(N)=O)NC(=O)CNC(=O)[C@H](CCC(=O)O)NC(=O)[C@H](CC(C)C)NC(=O)[C@H](Cc1ccc(O)cc1)NC(=O)[C@H](CO)NC(=O)[C@H](CO)NC(=O)[C@@H](NC(=O)[C@H](CC(=O)O)NC(=O)[C@H](CO)NC(=O)[C@@H](NC(=O)[C@H](Cc1ccccc1)NC(=O)[C@@H](NC(=O)CNC(=O)[C@H](CCC(=O)O)NC(=O)CNC(=O)[C@@H](N)Cc1c[nH]cn1)[C@@H](C)O)[C@@H](C)O)C(C)C)C(=O)N[C@@H](C)C(=O)N[C@@H](Cc1c[nH]c2ccccc12)C(=O)N[C@@H](C)CNC(=O)N[C@@H](C)CNC(=O)N[C@@H](C)CNC(=O)N[C@@H](CCCNC(=N)N)C(=O)NCC(N)=O [Compound 20, GG2[A^UA^UA^U]^26-29]	0.9
CC[C@H](C)[C@H](NC(=O)[C@H](Cc1ccccc1)NC(=O)[C@H](CCC(=O)O)NC(=O)[C@H](CCCCN)NC(=O)[C@H](C)NC(=O)[C@H](C)NC(=O)[C@H](CCC(N)=O)NC(=O)CNC(=O)[C@H](CCC(=O)O)NC(=O)[C@H](CC(C)C)NC(=O)[C@H](Cc1ccc(O)cc1)NC(=O)[C@H](CO)NC(=O)[C@H](CO)NC(=O)[C@@H](NC(=O)[C@H](CC(=O)O)NC(=O)[C@H](CO)NC(=O)[C@@H](NC(=O)[C@H](Cc1ccccc1)NC(=O)[C@@H](NC(=O)CNC(=O)[C@H](CCC(=O)O)NC(=O)CNC(=O)[C@@H](N)Cc1c[nH]cn1)[C@@H](C)O)[C@@H](C)O)C(C)C)C(=O)N[C@@H](C)C(=O)N[C@@H](Cc1c[nH]c2ccccc12)C(=O)N[C@@H](CC(C)C)C(=O)N[C@@H](C)CNC(=O)N[C@@H](C)CNC(=O)N[C@@H](C)CNC(=O)NCC(N)=O [Compound 21, GG2[A^UA^UA^U]^27-30]	8
